Data on one compound can be found in ChEMBL document CHEMBL6134870 (J Med Chem, 2025).

The structures appear in SMILES notation.

The data set can be described thus: in vivo. The settings on record: female, CD-1 IGS, mouse, iv, 0.3 mg/kg.

The term half-life denotes how long it takes for the measured level to halve. Lower therefore signals rapid decline. `C=C=CC(=O)NCCCc1ccn2c(=O)cc(CNCc3ccc(-c4ccccc4)cc3)nc2c1O` showed a half-life of roughly 1.5 h.
